Test results: publication PMC10825183 (Nature Communications, 2024)

Experiments:
rbHCN4 ΔDE’ (1-723) [1] = target: T1, rbHCN4 ΔDE’ (1-723) (Oryctolagus cuniculus, UniProt Q9TV66); settings: 5 µM cAMP
rbHCN4 ΔE (1-733) = target: T2, rbHCN4 ΔE (1-733) (Oryctolagus cuniculus, UniProt Q9TV66); assay: Whole-cell patch clamp in HEK293T cells, HCN4 ΔE; type: cell-based, rabbit
T2 construct: rbHCN4 ΔE (1-733); expressed in transfected cells; host or cells: HEK293T
T2 sequence (Q9TV66 1-733): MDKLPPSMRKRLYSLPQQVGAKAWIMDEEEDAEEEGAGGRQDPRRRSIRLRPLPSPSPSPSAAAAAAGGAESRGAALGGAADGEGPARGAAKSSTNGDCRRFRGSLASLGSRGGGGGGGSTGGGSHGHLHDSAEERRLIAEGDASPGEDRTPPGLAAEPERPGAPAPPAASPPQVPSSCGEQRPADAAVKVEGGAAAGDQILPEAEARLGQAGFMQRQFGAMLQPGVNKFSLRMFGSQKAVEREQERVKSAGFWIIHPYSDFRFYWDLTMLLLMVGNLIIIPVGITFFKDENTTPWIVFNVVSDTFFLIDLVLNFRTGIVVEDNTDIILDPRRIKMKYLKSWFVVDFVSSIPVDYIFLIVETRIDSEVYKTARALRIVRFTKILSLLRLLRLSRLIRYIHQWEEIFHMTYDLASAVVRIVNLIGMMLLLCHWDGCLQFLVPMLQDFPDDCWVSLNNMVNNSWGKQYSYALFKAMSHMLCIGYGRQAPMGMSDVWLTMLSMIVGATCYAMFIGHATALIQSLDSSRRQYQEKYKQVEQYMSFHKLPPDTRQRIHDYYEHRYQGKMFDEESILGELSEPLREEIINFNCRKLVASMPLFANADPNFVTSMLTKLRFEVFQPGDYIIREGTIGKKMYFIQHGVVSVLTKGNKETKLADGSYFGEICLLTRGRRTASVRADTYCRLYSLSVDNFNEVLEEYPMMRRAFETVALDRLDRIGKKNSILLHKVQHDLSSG

rbHCN4 ΔDE (1-718) [2] = target: T3, rbHCN4 ΔDE (1-718) (Oryctolagus cuniculus, UniProt Q9TV66); settings: 5 µM cAMP
rbHCN4 ΔC-term (1-758) = rbHCN4 ΔC-term (1-758) (Oryctolagus cuniculus, UniProt Q9TV66); settings: 1 µM cAMP
rbHCN4 ΔDE’ (1-723) [3] = target: T1, rbHCN4 ΔDE’ (1-723); assay: cell-based
rbHCN4 full-length (FL) = target: T4, rbHCN4 full-length (FL) (Oryctolagus cuniculus, UniProt Q9TV66); assay: Whole-cell patch clamp in HEK293T cells, HCN4 full length; type: cell-based, rabbit
T4 construct: The cDNA encoding the full-length rabbit HCN4 was previously cloned in pCI (Promega) mammalian expression vector; expressed in transfected cells; host or cells: HEK293T
T4 sequence (Q9TV66 1-1175): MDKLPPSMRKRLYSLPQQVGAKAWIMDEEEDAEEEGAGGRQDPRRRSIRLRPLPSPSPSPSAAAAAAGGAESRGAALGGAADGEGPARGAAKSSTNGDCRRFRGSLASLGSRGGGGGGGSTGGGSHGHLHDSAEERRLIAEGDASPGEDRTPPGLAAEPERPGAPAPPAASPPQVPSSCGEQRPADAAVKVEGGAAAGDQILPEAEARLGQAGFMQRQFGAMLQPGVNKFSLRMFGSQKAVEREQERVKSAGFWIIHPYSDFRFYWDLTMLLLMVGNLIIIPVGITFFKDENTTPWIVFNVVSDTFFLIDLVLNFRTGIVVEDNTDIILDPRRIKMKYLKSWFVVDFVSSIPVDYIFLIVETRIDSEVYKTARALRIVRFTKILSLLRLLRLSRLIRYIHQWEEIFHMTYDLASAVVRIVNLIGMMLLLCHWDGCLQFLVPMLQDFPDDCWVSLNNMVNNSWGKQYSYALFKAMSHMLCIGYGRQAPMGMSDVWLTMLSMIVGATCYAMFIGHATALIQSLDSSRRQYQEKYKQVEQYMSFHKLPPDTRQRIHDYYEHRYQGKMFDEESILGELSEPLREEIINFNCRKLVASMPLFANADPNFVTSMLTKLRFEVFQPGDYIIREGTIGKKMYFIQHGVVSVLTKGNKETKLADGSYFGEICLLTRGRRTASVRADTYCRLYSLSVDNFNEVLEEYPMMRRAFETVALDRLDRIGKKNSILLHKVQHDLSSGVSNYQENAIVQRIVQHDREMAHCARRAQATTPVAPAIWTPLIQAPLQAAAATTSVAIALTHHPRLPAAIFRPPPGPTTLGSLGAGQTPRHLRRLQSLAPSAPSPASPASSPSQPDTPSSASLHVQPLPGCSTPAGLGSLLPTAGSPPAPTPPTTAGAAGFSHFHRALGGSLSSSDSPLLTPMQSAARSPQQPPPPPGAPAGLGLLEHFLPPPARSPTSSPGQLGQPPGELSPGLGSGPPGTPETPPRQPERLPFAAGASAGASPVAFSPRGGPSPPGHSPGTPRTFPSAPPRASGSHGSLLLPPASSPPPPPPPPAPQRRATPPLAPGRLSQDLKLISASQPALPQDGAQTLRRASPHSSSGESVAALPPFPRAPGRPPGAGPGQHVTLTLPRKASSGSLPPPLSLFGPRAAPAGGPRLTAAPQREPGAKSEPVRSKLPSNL

rbHCN4 ΔDE (1-718) [4] = target: T3, rbHCN4 ΔDE (1-718); assay: cell-based
rbHCN4 D750A [5] = target: T5, rbHCN4 D750A (Oryctolagus cuniculus, UniProt Q9TV66, D750A); assay: cell-based
rbHCN4 D750A [6] = target: T5, rbHCN4 D750A; settings: 5 µM cAMP

## Nc1ncnc2c1ncn2[C@@H]1O[C@@H]2COP(=O)(O)O[C@H]2[C@H]1O [cAMP, Adenosine 3′,5′-cyclic monophosphate]
rbHCN4 ΔDE’ (1-723) [1]
  V1/2 shift due to cAMP: 6.3 ± 1.9 mV
rbHCN4 ΔE (1-733)
  pEC50: 5.07
rbHCN4 ΔE (1-733); 5 µM cAMP
  V1/2 shift due to cAMP: 7 ± 1.9 mV
rbHCN4 ΔDE (1-718) [2]
  V1/2 shift due to cAMP: 1.4 ± 1 mV
rbHCN4 ΔC-term (1-758)
  V1/2 shift due to cAMP: 12.7 ± 2.1 mV and 12.7 mV
rbHCN4 ΔDE’ (1-723) [3]
  pEC50: 5.03
rbHCN4 full-length (FL)
  pEC50: 5.87
rbHCN4 full-length (FL); 1 µM cAMP
  V1/2 shift due to cAMP: 11.4 ± 1.9 mV and 11.4 mV
rbHCN4 full-length (FL); 5 µM cAMP
  V1/2 shift due to cAMP: 14.9 ± 2 mV and 14.9 mV
rbHCN4 ΔDE (1-718) [4]
  pEC50: 4.42
rbHCN4 D750A [5]
  pEC50: 4.98
rbHCN4 D750A [6]
  V1/2 shift due to cAMP: 5.2 ± 1.2 mV

pEC50: −log10 of the molar value. Values joined by “and” are separate entries in the source; they are usually repeats but may differ in a detail not shown here. Equal values may be shown once.
